Assay results taken from ChEMBL document CHEMBL1955798, “Novel coumarins and 2-thioxo-coumarins as inhibitors of the tumor-associated carbonic anhydrases IX and XII” (Bioorg Med Chem, 2012).

What was measured:
Carbonic anhydrase 9 = Carbonic anhydrase 9 (Homo sapiens, UniProt Q16790); assay: Inhibition of human carbonic anhydrase 9 after 6 hrs by stop-flow CO2 hydration assay
Carbonic anhydrase 12 = Carbonic anhydrase 12 (Homo sapiens, UniProt O43570); assay: Inhibition of human carbonic anhydrase 12 after 6 hrs by stop-flow CO2 hydration assay

Ki (Carbonic anhydrase 9): > 200 µM | Ki (Carbonic anhydrase 12): > 200 µM
Compound: O=c1ccc2ccccc2o1 [COUMARIN]
